Chains of the proteins cited; added tags and fusions are not shown.
UniProt P28482, whole entry: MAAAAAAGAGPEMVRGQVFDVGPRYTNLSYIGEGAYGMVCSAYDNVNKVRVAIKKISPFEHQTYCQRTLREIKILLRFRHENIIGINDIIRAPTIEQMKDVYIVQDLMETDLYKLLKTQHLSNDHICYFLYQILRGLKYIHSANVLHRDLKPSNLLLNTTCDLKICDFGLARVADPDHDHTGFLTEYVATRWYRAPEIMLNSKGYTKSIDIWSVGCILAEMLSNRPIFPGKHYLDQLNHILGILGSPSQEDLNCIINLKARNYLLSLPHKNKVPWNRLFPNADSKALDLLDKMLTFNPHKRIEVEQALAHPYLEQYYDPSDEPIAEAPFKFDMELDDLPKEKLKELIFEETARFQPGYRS

The assay addresses Mitogen-activated protein kinase 1 (Homo sapiens, UniProt P28482).
With `Cc1cc(Nc2nccc(-c3ccn([C@H](CO)c4ccc(Cl)c(F)c4)c(=O)c3)n2)n(C)n1`, 13 nM corresponded to half-maximal inhibition (IC50). Consider `CCn1cc(Nc2nccc(-c3ccn([C@H](CO)c4ccc(Cl)c(F)c4)c(=O)c3)n2)c(C)n1`, for which the IC50 was 7.7 nM. With `Cc1nn(C)cc1Nc1nccc(-c2ccn([C@H](CO)c3ccc(Cl)c(F)c3)c(=O)c2)n1`, the IC50 came out at 5.9 nM.

Values taken from ChEMBL document CHEMBL4425105, “Discovery of (S)-1-(1-(4-Chloro-3-fluorophenyl)-2-hydroxyethyl)-4-(2-((1-methyl-1H-pyrazol-5-yl)amino)pyrimidin-4-yl)pyridin-2(1H)-one (GDC-0994), an Extracellular Signal-Regulated Kinase 1/2 (ERK1/2) Inhibitor in Early Clinical Development” (J Med Chem, 2016).
